Test results as given in US9512138B2, “Compositions and methods for treating cancer” (The Regents of the University of California, priority 2012, dated 2016).

Columns and labels:
[1] = test system: SKBR3 parental (control) cells; assay: Proliferation and HER2 overexpression of SKBR3 parental cells; type: cell-based, human
Text: Activation of NFkB in HER2-overexpressing breast tumor cells resistant to Herceptin (trastuzumab) and effects of parthenolide analogues. The human breast cancer cell line SKBR3 (ATCC) was obtained from the American Type Culture Collection (ATCC). Unless otherwise stated, monolayer cultures of SKBR3 were maintained in Dulbeccos' Modified Eagle's Media (DMEM):F12 medium with 10% FBS. The cell lines overexpressed the HER2 gene product. Trastuzumab-resistant clones SKBR3/TZR were generated from SKBR3 cells as detailed previously (65). In brief, to select trastuzumab-resistant clones, SKBR3 cells were plated in 24-well plates at low density and maintained in growth medium containing 10, 50, and 100 mg/mL of trastuzumab. SKBR3/TZR cells were maintained in growth medium containing 100 mg/mL of trastuzumab. SKBR3/TZR cells were repeatedly confirmed as insensitive to trastuzumab. […] The number of cells overexpressing HER2 receptors was reduced in SKBR3 cells on treatment with trastuzumab (10 mg/mL) for 72 hrs.

[2] = test system: SKBR3/TZR cells; assay: Proliferation of trastuzumab-resistant SKBR3/TZR cells; type: cell-based, human; details: media containing 100 mg/mL trastuzumab, 2-5 days
Method: Assays for Tumor Cell Proliferation. Breast tumor cells were be grown in RPMI 1640 media with 10% heat-inactivated FBS (except for TMR and TZR cells as noted above). For estrogen-free conditions, medium were changed 48 h before studies to phenol-red free RPMI 1640 with 1% dextran-coated, charcoal-treated (DCC) FBS, then treated with selected reagents. Cell counts and viability tests (Trypan blue) will be done every 24 hr for […]. After 48-72 hr, proliferation was assessed by cell counts.
Activation of NFkB in HER2-overexpressing breast tumor cells resistant to Herceptin (trastuzumab) and effects of parthenolide analogues. The human breast cancer cell line SKBR3 (ATCC) was obtained from the American Type Culture Collection (ATCC). Unless otherwise stated, monolayer cultures of SKBR3 were maintained in Dulbeccos' Modified Eagle's Media (DMEM):F12 medium with 10% FBS. The cell lines overexpressed the HER2 gene product. Trastuzumab-resistant clones SKBR3/TZR were generated from SKBR3 cells as detailed previously (65). In brief, to select trastuzumab-resistant clones, SKBR3 cells were plated in 24-well plates at low density and maintained in growth medium containing 10, 50, and 100 mg/mL of trastuzumab. SKBR3/TZR cells were maintained in growth medium containing 100 mg/mL of trastuzumab. SKBR3/TZR cells were repeatedly confirmed as insensitive to trastuzumab. […]

Substance: trastuzumab: Herceptin (trastuzumab), therapy for HER2+ breast tumors
- number of cells overexpressing HER2 receptors ([1]; 10 mg/mL for 72 hrs): reduced
- growth of SKBR3 parental cells with trastuzumab ([1]; fresh treatment with 10 and 100 mg/mL): significantly inhibited
- growth of SKBR3/TZR cells with trastuzumab [2]: not inhibited
